Results taken from patent US12502434B2, “Compound comprising EZH2 inhibitor and E3 ligase binder and pharmaceutical composition for preventing or treating EZH2-associated disease comprising same as active ingredient” (DAEGU-GYEONGBUK MEDICAL INNOVATION FOUNDATION, priority 2019, dated 2025).

The chains behind the UniProt entries cited, without tags or fusion partners.
UniProt Q15910, whole entry: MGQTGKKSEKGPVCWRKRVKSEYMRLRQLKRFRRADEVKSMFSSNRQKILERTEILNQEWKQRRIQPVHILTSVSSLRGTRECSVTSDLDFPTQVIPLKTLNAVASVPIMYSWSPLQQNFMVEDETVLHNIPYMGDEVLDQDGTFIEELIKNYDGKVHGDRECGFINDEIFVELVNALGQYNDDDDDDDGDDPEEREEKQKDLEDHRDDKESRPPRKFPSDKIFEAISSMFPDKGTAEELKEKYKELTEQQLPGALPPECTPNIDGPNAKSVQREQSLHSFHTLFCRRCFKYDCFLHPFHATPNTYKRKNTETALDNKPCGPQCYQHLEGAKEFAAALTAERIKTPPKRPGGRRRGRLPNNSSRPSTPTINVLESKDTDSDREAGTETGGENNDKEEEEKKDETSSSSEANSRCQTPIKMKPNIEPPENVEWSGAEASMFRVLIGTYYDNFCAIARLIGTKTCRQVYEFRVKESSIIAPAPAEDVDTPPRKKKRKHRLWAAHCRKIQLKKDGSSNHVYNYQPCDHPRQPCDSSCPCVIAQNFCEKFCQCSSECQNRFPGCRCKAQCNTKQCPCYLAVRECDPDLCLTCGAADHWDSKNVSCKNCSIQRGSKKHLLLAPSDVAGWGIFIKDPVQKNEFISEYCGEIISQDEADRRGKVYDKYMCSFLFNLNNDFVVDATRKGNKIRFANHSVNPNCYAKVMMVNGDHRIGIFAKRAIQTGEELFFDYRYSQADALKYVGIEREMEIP

Biological target: T1, EZH2 protein in LS174T cells (Homo sapiens, UniProt Q15910)
T1 construct: endogenous in cells; host or cells: LS174T
Assay: Proteolytic effect in colorectal cancer cells (Western blotting)
Assay type: cell-based
Description: After 72 hours of the treatment, the cells were collected and lysed using RIPA buffer (50 mM Tris, pH 7.5, 150 mM NaCl, 1% Triton X-100, 0.1% SDS, […], 0.5% deoxycholate, and protease inhibitor cocktail), followed by sonication (30 sec on/30 sec off, 5 cycles) to prepare a cell lysate.

SMILES: CCN(c1cc(-c2ccc(CN3CCN(CC(=O)NCCCCCOCCOCCC(=O)N[C@H](C(=O)N4C[C@H](O)C[C@H]4C(=O)NCc4ccc(-c5scnc5C)cc4)C(C)(C)C)CC3)cc2)cc(C(=O)NCc2c(C)cc(C)[nH]c2=O)c1C)C1CCOCC1 [Example 44, (2S,4R)-1-((S)-2-(tert-butyl)-18-(4-((3′-(((4,6-dimethyl-2-oxo-1,2-dihydropyridine-3-yl)methyl)carbamoyl)-5′-(ethyl(tetrahydro-2H-pyran-4-yl)amino)-4′-methyl-[1,1′-biphenyl]-4-yl)methyl)piperazine-1-yl)-4,17-dioxo-7,10-dioxa-3,16-diazaoctadecanoyl)-4-hydroxy-N-(4-(4-methylthiazole-5-yl)benzyl)pyrrolidine-2-carboxamide]
- %, degradation at 1 uM: 73.57%
- Grade (percent value of the protein degradation when treated with 1 μM): B (key: A: >75%; B: 50-75%; C: 25-50%; D: <25%)
